Tested on: PARP7 protein levels
Experiment: Endogenous PARP7 protein levels in CT-26 cells
Type: cell-based, mouse

B1: recombinant IFN-β: recombinant IFN-β, type I interferon (protein, UniProt P01574 22-187, looked up)
Interferon beta: MSYNLLGFLQRSSNFQCQKLLWQLNGRLEYCLKDRMNFDIPEEIKQLQQFQKEDAALTIYEMLQNIFAIFRQDSSSTGWNETIVENLLANVYHQINHLKTVLEEKLEKEDFTRGKLMSSLHLKRYYGRILHYLKAKEYSHCAWTIVRVEILRNFYFINRLTGYLRN
PARP7 levels after recombinant IFN-β: did not increase PARP7 levels
